Protein sequences, listed by entry. Tags and fused reporters are not part of them.
UniProt P06276, whole entry: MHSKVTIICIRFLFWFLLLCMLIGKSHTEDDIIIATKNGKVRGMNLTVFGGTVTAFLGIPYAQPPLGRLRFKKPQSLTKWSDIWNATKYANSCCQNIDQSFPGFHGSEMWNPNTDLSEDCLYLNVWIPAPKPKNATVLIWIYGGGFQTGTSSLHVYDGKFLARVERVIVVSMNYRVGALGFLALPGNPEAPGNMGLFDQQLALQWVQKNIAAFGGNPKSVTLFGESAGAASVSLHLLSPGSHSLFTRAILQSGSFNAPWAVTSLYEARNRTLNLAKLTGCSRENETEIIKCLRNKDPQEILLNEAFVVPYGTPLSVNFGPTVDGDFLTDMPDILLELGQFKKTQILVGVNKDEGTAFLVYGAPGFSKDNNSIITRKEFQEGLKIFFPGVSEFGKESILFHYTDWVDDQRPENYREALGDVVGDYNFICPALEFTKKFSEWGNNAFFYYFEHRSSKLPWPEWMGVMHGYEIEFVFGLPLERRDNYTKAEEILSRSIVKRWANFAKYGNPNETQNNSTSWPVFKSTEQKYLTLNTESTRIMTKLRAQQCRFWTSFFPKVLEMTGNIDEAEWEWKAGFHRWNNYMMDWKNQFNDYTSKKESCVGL

According to ChEMBL document CHEMBL6074689 (Eur J Med Chem, 2025):

Biological target: Cholinesterase (Homo sapiens, UniProt P06276)

CCN(C)C(=O)Oc1cccc([C@H](C)N(C)C)c1 [RIVASTIGMINE]
IC50: 91 nM
